Yeast mating assay B: variants of the scFv Ab-14

Target peptide (SARS-CoV-2 spike, HR2 region): PDVDLGDISGINAS

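The parent was found by panning a naive human phage display library on the peptide. These sequences belong to a second round, designed from the earlier measurements on random variants of the parent. Their group label is 14L_Ctrl (Ctrl: baseline library sampled from a position-specific scoring matrix, with some repeated check sequences). AlphaSeq pools MATa yeast showing the antibodies with MATalpha yeast showing the peptide. Pairs that bind mate more often; barcode pairs of the diploids are counted by sequencing. Scores were corrected for input abundance and mapped to Kd with protein pairs of known affinity run in the same pool. Mating was done six times.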

Parent scFv Ab-14: VH joined to VL by a (GGGGS)3 linker. Changes lie in the light chain CDRs alone.
VH: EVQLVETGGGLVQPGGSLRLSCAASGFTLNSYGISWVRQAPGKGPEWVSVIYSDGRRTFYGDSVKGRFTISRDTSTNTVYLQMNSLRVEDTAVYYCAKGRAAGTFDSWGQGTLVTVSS
VL: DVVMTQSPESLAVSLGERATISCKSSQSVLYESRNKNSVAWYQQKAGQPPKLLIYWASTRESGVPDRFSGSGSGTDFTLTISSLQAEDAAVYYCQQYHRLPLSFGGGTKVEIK

The parent's light chain CDRs are KSSQSVLYESRNKNSVA, WASTRES, QQYHRLPLS; each variant's own CDRs replace them letter for letter.
The read-out is the apparent dissociation constant on a log10 scale (nM): the lower, the stronger.
"nd" means that the variant was in the library but no mating with the target was seen in that replicate; the authors take this as a sign of poor binding, and no number exists.
In the paper, a design with two or fewer of six values counts as a poor binder.

CDR-L1 | CDR-L2 | CDR-L3 | replicates, log10 nM | control signals
KHSQSFLYESRNCNSVA | WASTRES | QQYHRLPLS | 2.40 nd nd 2.60 nd 2.30 | 0/18
KSAQSTLQESRNKNSVA | HASTRES | QQYHRLPNS | 1.42 1.96 1.67 1.59 1.33 1.54 | 2/18 (2.16)
KVSQSVLYESRNKNSVA | WASERIS | QKYHRLPLS | nd nd nd nd nd nd | 2/18 (2.60)
KSSQSVMYESRLTNSVA | HASTRET | QQYIRLPLS | 1.66 0.79 0.77 0.05 0.46 1.00 | 1/18 (1.72)
KSSQSVTYESRNENSVA | NASTRES | QQYHRLPLS | 0.16 0.31 -0.12 0.47 0.11 0.41 | 1/18 (3.03)
KSSQSVLDPSRNKNSVA | WASTRES | QQYHRAPLS | 0.94 nd nd nd nd nd | 0/18
KSSQSVLYLSRNKNSVA | SASTRES | QQIHRLPLS | nd 1.44 1.95 nd 0.86 1.55 | 0/18
KSPQSVVFESRRKNSVA | WASTREA | QQYHRLPLS | nd nd nd nd 2.27 nd | 0/18
KSSQSVLYEERNKNSVA | DASTRED | QQYHRLPLS | 0.51 -0.02 0.53 0.39 0.27 0.59 | 1/18 (1.37)
KSSQSVVYESRNKNSVA | EASTRYS | QQYHCLPLS | nd nd 1.89 nd nd nd | 0/18
KSSQEVLVTSRNKNSVA | WASTRES | QQYHRLPLS | 2.24 1.55 2.05 1.77 1.75 2.32 | 1/18 (1.54)
KSSQSVLYESTNKNSVA | QASTRES | QQYHRLPLS | 0.86 0.42 0.34 0.40 0.28 0.49 | 0/18
KSSPSVLYESRNPNSVA | WASTRES | QQYHRLPLS | nd 2.54 1.03 1.16 1.36 0.99 | 3/18 (1.80)
KSSQSVLYESGNKNSVA | NASAREH | QQYHRLPLS | 0.50 0.71 0.33 1.97 0.91 1.06 | 0/18
KSSYSVLQESRNKNDVA | WASTRES | QQYHRLPLS | nd nd nd nd nd nd | 0/18
KSSQSTQYESHNKNSVA | WASTRTP | QQYHRLPLS | 3.11 1.48 3.58 nd 1.87 1.22 | 0/18
KSSEEVLYESRNQNSVA | WASTRES | QQYHRLPLS | 0.92 1.48 0.88 1.33 1.10 1.63 | 0/18
KSSQSLLLESRNKNSVA | WATIRES | QQYHRLPLS | 1.37 1.56 1.30 1.30 1.29 1.72 | 0/18
KLSQSVLYESRNKNSVA | WASTRES | QQYHRLPLW | 0.33 0.93 2.45 2.56 0.79 0.99 | 0/18
VSSYSVLYEDTNKNSVA | DASTRES | QQYHRLPLS | 0.74 0.33 0.53 0.62 0.38 0.57 | 0/18
KISQSVLYESRNKNSVA | WASTRES | QQYHYLPLS | nd 1.56 nd 3.29 2.67 1.64 | 1/18 (2.70)
KCSQSVFMESRNKASVA | WASTRES | QQYHELPLS | 2.06 2.07 2.13 2.53 1.91 3.42 | 1/18 (1.85)
KSSQSVLGESRNKNSVA | NASTRES | QQYHRLPLS | 0.30 0.10 -0.11 -0.03 0.11 -0.08 | 2/18 (1.86)
KSHQSVLYESRNANSVA | RASTRES | QQYHRLPLS | 0.59 0.53 0.38 0.38 0.58 0.73 | 3/18 (2.89)
KSLQSVDYESRNKNSVA | WASTRES | QQYHRLPLS | nd 1.72 2.28 2.40 1.77 nd | 1/18 (3.17)
KSSDSVLYESRNKNSVA | WASTRES | QQYHRLPLS | 1.21 2.88 nd 2.80 1.57 nd | 0/18
KSDQSVLYESNNKNAVA | WASTRES | QQYHRLPLS | 1.99 2.71 1.41 2.24 3.43 2.40 | 0/18
KSSQSMAYESRNKNSVA | WASTRES | QQYHRLPLS | 0.11 0.11 0.03 -0.42 -0.09 0.32 | 0/18
KSSQSVMYDSREKNSVA | AASTRES | QQYHRLPLS | 0.68 1.35 0.73 1.24 1.64 1.30 | 0/18
KSSQSVWYESRNQNSQA | AASYRES | QQYHRLPLN | nd nd nd nd nd nd | 0/18
KSSQGVLYESRNKNSVA | WASTRSN | QQYHRLPLS | 1.51 nd nd 2.32 1.97 nd | 0/18
HVSQSVLTETSNKNSVA | WASTRES | QQYHDLPLS | nd 2.84 nd 1.97 nd nd | 0/18
DVSQSVLYESRNNNAVA | WASTRES | QQYHRLPLS | 0.94 0.79 1.09 0.81 0.62 0.83 | 1/18 (2.94)
KSSQSVLYVSRNMNSVA | EASTNFS | QQYVRLPLS | 0.07 -0.29 -0.13 0.08 0.20 0.12 | 1/18 (1.55)
KSSQSVLYESRNDNSVA | WASTRES | FQYHRLPLS | nd nd nd nd nd nd | 1/18 (1.04)
KSSQSVLYEWRNKNSVA | DASTRES | QQYHRMPLS | 0.52 0.41 0.49 0.60 0.39 0.45 | 0/18
KSSQSVLYESRLSNSVA | WAYTRES | QQYHRLPLS | nd nd nd nd nd nd | 0/18
KSSQSVLNESMNKNSVA | WASTRES | QQYHRLPLS | 1.56 1.50 1.33 2.04 1.40 1.51 | 1/18 (3.15)
KSMQSMLGESRNKNSVA | WASSRPD | QHYHRLPLS | nd 2.25 0.89 1.26 1.50 0.97 | 1/18 (1.87)
KSSQSVLQESRNKNSVA | GASTRES | QQYHRLPLS | nd 1.02 0.78 0.67 1.38 1.81 | 1/18 (1.94)
KSMQSVLQDSRNKNSVA | NASTRES | QQYHRLPLS | 0.30 0.31 0.24 0.09 0.45 0.41 | 1/18 (3.27)
KSSQSMLGESRNKNSVA | HSSTRES | QQYHRLPLS | 0.88 1.09 0.88 0.87 0.94 0.81 | 2/18 (2.84)
KSSASVLYESRNSNSVA | AASTRES | QQYHRLPLS | 0.57 0.64 0.23 0.30 0.70 0.61 | 1/18 (2.10)

Again, the first 4 entries without any signal:

CDR-L1 | CDR-L2 | CDR-L3 | replicates, log10 nM | control signals
KVSQSVLYESRNKNSVA | WASERIS | QKYHRLPLS | nd nd nd nd nd nd | 2/18 (2.60)
KSSYSVLQESRNKNDVA | WASTRES | QQYHRLPLS | nd nd nd nd nd nd | 0/18
KSSQSVWYESRNQNSQA | AASYRES | QQYHRLPLN | nd nd nd nd nd nd | 0/18
KSSQSVLYESRNDNSVA | WASTRES | FQYHRLPLS | nd nd nd nd nd nd | 1/18 (1.04)

Values of this round are not directly comparable with the first-round values of the same sequences.
Three control strains display no target. For all light chain designs, 4% of the pairings with them gave a signal, with a median of 2.64 and one signal in twenty below 1.59, so weak values seen in few replicates may be background. Also given: how often the same scFv was detected with the empty control strains, with their mean in brackets.

Data: MIT Lincoln Laboratory AlphaSeq set, Li et al. 2023, doi:10.1038/s41467-023-39022-2, as distributed in FLAb.